# What was measured:
# The chains behind the UniProt entries cited, without tags or fusion partners.
# UniProt P33535, whole entry, looked up: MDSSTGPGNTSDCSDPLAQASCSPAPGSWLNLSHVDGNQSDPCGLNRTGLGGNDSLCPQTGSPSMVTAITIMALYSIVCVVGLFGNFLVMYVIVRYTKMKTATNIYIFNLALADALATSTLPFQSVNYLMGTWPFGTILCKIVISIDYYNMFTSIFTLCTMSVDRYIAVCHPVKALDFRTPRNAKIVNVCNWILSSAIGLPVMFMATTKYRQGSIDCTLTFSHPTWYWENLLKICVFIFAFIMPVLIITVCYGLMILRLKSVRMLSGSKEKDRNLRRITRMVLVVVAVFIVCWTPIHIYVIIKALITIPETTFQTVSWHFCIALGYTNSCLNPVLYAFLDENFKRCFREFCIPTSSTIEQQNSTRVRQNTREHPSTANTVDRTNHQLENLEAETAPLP
# UniProt P33533, whole entry, looked up: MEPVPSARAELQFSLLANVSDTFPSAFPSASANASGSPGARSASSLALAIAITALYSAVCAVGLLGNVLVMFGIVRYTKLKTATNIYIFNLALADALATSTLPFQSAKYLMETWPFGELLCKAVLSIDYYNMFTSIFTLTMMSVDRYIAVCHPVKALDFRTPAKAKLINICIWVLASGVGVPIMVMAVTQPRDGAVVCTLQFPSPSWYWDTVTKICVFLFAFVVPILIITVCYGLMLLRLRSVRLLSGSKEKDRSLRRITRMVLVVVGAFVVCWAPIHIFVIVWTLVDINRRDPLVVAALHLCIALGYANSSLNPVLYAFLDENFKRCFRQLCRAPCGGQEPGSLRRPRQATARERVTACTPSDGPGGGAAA
# [1] = target: Mu-type opioid receptor (Rattus norvegicus) (UniProt P33535); test: Potency at opioid receptor mu relative to [Leu5]-enkephalin
# [2] = target: Delta-type opioid receptor (Rattus norvegicus) (UniProt P33533); test: Relative potency for opioid receptor delta compared to [Leu5]-enkephalin
# [3] = Ratio of IC50 value measured in MVD to that of GPI.
# [4] = target: Opioid receptors; mu & delta (Rattus norvegicus) (UniProt P33533+P33535); test: Relative binding affinity for opioid receptors delta and mu (ratio of Ki)
# [5] = target: Delta-type opioid receptor (Rattus norvegicus) (UniProt P33533); test: Relative potency towards opioid receptor delta relative to [Leu5]-enkephalin
Structure (SMILES),Relative potency [1],Relative potency [2],IC50 ratio [3],Ratio [4],Relative potency [5]
"NC(=O)[C@@H]1CCC(=O)NCCC[C@@H](NC(=O)[C@@H](N)Cc2ccc(O)cc2)C(=O)N[C@@]2(CCc3ccccc3C2)C(=O)N1 (single isomer, unassigned)",0.358,0.000721,10.8,133,
NC(=O)[C@@H]1CCC(=O)NCCC[C@@H](NC(=O)[C@@H](N)Cc2ccc(O)cc2)C(=O)N[C@H](Cc2ccccc2)C(=O)N1,0.00568,0.000181,4.39,8.43,
NC(=O)[C@H]1CCC(=O)NCCC[C@H](NC(=O)[C@@H](N)Cc2ccc(O)cc2)C(=O)NC2(Cc3ccccc3C2)C(=O)N1,2.24,,5.06,49.6,0.012
"NC(=O)[C@@H]1CCC(=O)NCCC[C@@H](NC(=O)[C@@H](N)Cc2ccc(O)cc2)C(=O)N[C@]2(CCc3ccccc3C2)C(=O)N1 (single isomer, unassigned)",1.14,0.00161,8.04,190,
C[C@]1(Cc2ccccc2)NC(=O)[C@H](NC(=O)[C@@H](N)Cc2ccc(O)cc2)CCCNC(=O)CC[C@@H](C(N)=O)NC1=O,1.31,0.0464,1.66,7.62,
NC(=O)[C@@H]1CCC(=O)NCCC[C@@H](NC(=O)[C@@H](N)Cc2ccc(O)cc2)C(=O)N[C@@H](Cc2ccc3ccccc3c2)C(=O)N1,3.68,0.05,2.68,19.8,
CC(C)C[C@@H](NC(=O)[C@@H](Cc1ccccc1)NC(=O)CNC(=O)CNC(=O)[C@H](N)Cc1ccc(O)cc1)C(=O)O,,1,,,
NC(=O)[C@@H]1CCC(=O)NCCC[C@@H](NC(=O)[C@@H](N)Cc2ccc(O)cc2)C(=O)N[C@H](CCc2ccccc2)C(=O)N1,0.0365,0.000975,2.68,10.1,
NC(=O)[C@@H]1CCC(=O)NCCC[C@@H](NC(=O)[C@@H](N)Cc2ccc(O)cc2)C(=O)N2Cc3ccccc3C[C@H]2C(=O)N1,0.00391,5.05e-05,2.39,20.8,
Cc1ccccc1C[C@@H]1NC(=O)[C@H](NC(=O)[C@@H](N)Cc2ccc(O)cc2)CCCNC(=O)CC[C@@H](C(N)=O)NC1=O,4.91,0.275,2.04,4.8,
CN1C(=O)[C@H](NC(=O)[C@@H](N)Cc2ccc(O)cc2)CCCNC(=O)CC[C@@H](C(N)=O)NC(=O)[C@@H]1Cc1ccccc1,0.00941,0.000198,2.93,12.8,
NC(=O)[C@@H]1CCC(=O)NCCC[C@@H](NC(=O)[C@@H](N)Cc2ccc(O)cc2)C(=O)N[C@@H](Cc2ccccc2)C(=O)N1,9.63,0.79,0.949,3.27,
NC(=O)[C@@H]1CCC(=O)NCCC[C@@H](NC(=O)[C@@H](N)Cc2ccc(O)cc2)C(=O)N[C@@H](CCc2ccccc2)C(=O)N1,8.04,0.165,5.89,13.2,
